Reference: patent US12583868B2, “JAK inhibitors and methods for synthesizing and using thereof” (GALDERMA HOLDING SA, priority 2020, dated 2026)

Columns and labels:
p-STAT3Y705 in skin = test: In vivo pharmacodynamy model: IL-6 induced Phospho-STAT3, topical; design: species or system BALB/c ByJ Rj mice; details: topical 1 mM, PG/EtOH 3/7
[1] = Human skin ex vivo: flux through skin and dermis concentration (Franz cells); assay type: in vitro ADME; details: PG/H2O cream 1 mg/mL, human skin
Experimental: Flux through skin and dermis concentration were measured during 6-24 h (ng/cm^2/h) after disposition of the test compound 2.7 mM in PG/H2O cream 1 mg/mL. Human dermatomed skin (frozen), 350-500 μm thick were used in diffusion cells system Franz cells 1.76 cm^2 maintained at 32±1° C. after equilibration. Skin integrity was confirmed by TEWL <20 g/m^2/h. 3 donors were used for each test. The compound was formulated in modified aqueous British pharmacopoeia cream pH6 PG 14% and applied 5 mg/cm^2 by weighing. Receptor fluid containing 4% BSA in PBS 10 mM was maintained under agitation and was sampled along with dermis sampled at 6 h and 24 h after exposure. 5 Strips were used to remove carefully the excess of formulation and were not dosed.

With `N#CC[C@H](C1CCCC1)n1cc(-c2ncnc3[nH]ccc23)cn1` [Ruxolitinib, reference compound] the “PD/IL6 mouse top @1 mM % inh vs vehicle” value (p-STAT3Y705 in skin) was 60% and the dermis concentration [1] was 1.9 µM.
